Earlier results, collected in US10273264B2, “Cortistatin analogues and syntheses and uses thereof” (President and Fellows of Harvard College, priority 2015, dated 2019).

Amino acid sequences for entries named in this document (tags omitted). A change or cut given only in a name is not applied to a line headed by its entry.
UniProt P49336: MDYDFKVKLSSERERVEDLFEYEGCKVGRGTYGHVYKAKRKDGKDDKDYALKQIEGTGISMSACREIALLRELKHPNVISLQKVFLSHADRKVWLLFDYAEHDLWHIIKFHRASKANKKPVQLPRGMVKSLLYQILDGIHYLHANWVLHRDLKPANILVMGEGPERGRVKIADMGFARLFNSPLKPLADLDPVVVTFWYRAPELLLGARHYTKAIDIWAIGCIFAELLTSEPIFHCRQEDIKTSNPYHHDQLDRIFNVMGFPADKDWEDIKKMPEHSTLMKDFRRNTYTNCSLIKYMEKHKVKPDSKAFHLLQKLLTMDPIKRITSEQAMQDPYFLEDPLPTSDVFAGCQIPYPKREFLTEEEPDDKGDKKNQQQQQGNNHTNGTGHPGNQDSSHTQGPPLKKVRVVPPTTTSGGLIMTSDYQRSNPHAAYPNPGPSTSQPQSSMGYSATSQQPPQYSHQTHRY

Columns and labels:
CDK8 [1] = biological target: T1, CDK8 (Homo sapiens, UniProt P49336); details: as described in PCT/US2014/72365
CDK8 [2] = biological target: T1, CDK8; details: reported, Cee et al. and US 20120071477

Substance: cortistatin A
- inhibition of CDK8 kinase activity (CDK8 [1]): inhibits
- binding to CDK8 (CDK8 [2]): bind
